Reference: patent publication US20140031289A1 (Korea Institute of Science and Technology, priority 2012, published 2014)

Experiment: In vivo release behavior of human growth hormone from the polymer hydrogel
Settings: SD rat, solution containing human growth hormone only injected
Experimental: The anionic human growth hormone and the cationic protamine sulfate were mixed in various ratios (protamine:human growth hormone=1:1 or 3:1) to prepare complexes. The phosphazene-based polymers of Examples 7 and 8 each were dissolved in phosphate buffered saline (pH 7.4) to make a solution with the concentration of 10 wt %, to which was added the above prepared complex. For the in vivo release test, 200 μg/kg of hydrogel containing human growth hormone in the concentration of 1.1 mg/kg was injected to test animal rats (OrientalBio, SD rat, male of 4-week old). At the predetermined time, 0.3 nm of blood was taken from the tail of rat and centrifuged. The amount of human growth hormone contained in the supernatant was measured by using an ELISA kit (BioCheck, Inc., USA).
The ratio of protamine sulfate and human growth hormone in the formation of the complex was fixed to protamine:human growth hormone=1:1 or 3:1, and was represented in the format such as Example-1 (1:1) or Example-2 (3:1). The release behavior of human growth hormone in the phosphazene-based polymer hydrogel to which protamine was combined in various ratios was measured as above and is represented in FIG. 6. […] On the contrary, when the hormone was combined with the phosphazene-based polymer hydrogel, sustained release as shown in the figure could be observed. […]

human growth hormone
time within which sharp decrease of blood concentration was observed: ≤ 24 h
